Source: patent US20210290732A1, “GLP-1R and GCGR Agonists, Formulations, and Methods of Use” (Spitfire Pharma LLC, priority 2020, published 2021)

Test: Ligand Concentrations, Single Dose, C57BL/6J Mice
Description: Table printed on a drawing sheet, FIG. 9
Title: Ligand Concentrations, Single Dose, C57BL/6J Mice
The patent's description of the figure: FIG. 9.
First reader's note: Table is inset in a concentration-time plot; the plot legend gives the dose and route (10nmol/kg sc) for both substances.

[1] = C57BL/6J, mouse, in vivo, sc, 10 nmol/kg

Structure (SMILES): CC[C@H](C)[C@H](NC(=O)[C@H](Cc1ccccc1)NC(=O)[C@H](CCC(=O)O)NC(=O)[C@@H]1CCCCNC(=O)CC[C@H](NC(=O)[C@H](CC(=O)O)NC(=O)[C@H](CC(C)C)NC(=O)[C@H](Cc2ccc(O)cc2)NC(=O)[C@H](CCCCN)NC(=O)[C@H](CO)NC(=O)[C@H](Cc2ccc(O)cc2)NC(=O)[C@H](CC(=O)O)NC(=O)[C@H](CO)NC(=O)[C@@H](NC(=O)[C@H](Cc2ccccc2)NC(=O)[C@@H](NC(=O)CNC(=O)[C@H](CCC(N)=O)NC(=O)C(C)(C)NC(=O)[C@@H](N)Cc2c[nH]cn2)[C@@H](C)O)[C@@H](C)O)C(=O)N[C@@H](CCCCNC(=O)[C@H]2O[C@@H](OCCCCCCCCCCCCCCCCCC(=O)O)[C@H](O)[C@@H](O)[C@@H]2O)C(=O)N[C@@H](C)C(=O)N[C@@H](C)C(=O)N1)C(=O)N[C@@H](CCC(N)=O)C(=O)N[C@@H](Cc1c[nH]c2ccccc12)C(=O)N[C@@H](CC(C)C)C(=O)N[C@@H](CC(C)C)C(=O)N[C@@H](CCC(N)=O)C(=O)N[C@H](C(N)=O)[C@@H](C)O [ALT-801]
- AUC(0-inf): 2690 ng·h/mL
- Tmax: 8 h
- Cmax [1]: 92 ng/mL
- half-life [1]: 15 h
- MRT (mouse, in vivo, sc): 22 h
